## AlphaSeq binding of Ab-95 light chain variants to a spike HR2 peptide

Data: MIT Lincoln Laboratory AlphaSeq set, Engelhart et al. 2022, doi:10.1038/s41597-022-01779-4, as distributed in FLAb.

Antigen: PDVDLGDISGINAS, a 14-residue peptide of the SARS-CoV-2 spike HR2 region.

The variants keep the heavy chain, the linker and the frameworks of Ab-95 (scFv order VH, three GGGGS repeats, VL).
VH: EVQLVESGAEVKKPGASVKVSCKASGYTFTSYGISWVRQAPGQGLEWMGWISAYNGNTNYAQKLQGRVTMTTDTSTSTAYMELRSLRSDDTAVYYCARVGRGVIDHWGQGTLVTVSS
VL: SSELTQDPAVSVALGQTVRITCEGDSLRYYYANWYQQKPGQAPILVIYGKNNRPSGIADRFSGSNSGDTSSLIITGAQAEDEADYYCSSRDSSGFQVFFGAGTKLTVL

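The parent was found by panning a naive human phage display library on the peptide. The library (AAYL52) carries one to three amino acid substitutions per variant, with no insertions or deletions. In AlphaSeq, yeast of one mating type display the scFv and yeast of the other type display the target. Binding brings cells together so that they mate, and sequencing counts the barcode pairs among the diploids. A regression on co-assayed BCL2-family reference pairs converts the normalised counts of each replicate to an apparent Kd. The assay was run in three technical replicates.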

Each variant is given by its three light chain CDRs, as the data file delimits them; those of the parent are EGDSLRYYYAN, GKNNRPS, SSRDSSGFQVF.
Values are log10 of the apparent Kd in nM; lower means stronger binding.
"ND" means that the variant was in the library but no mating with the target was seen in that replicate; the authors take this as a sign of poor binding, and no number exists.
Nonspecific signal, from three strains lacking the peptide, appeared in 28% of pairings of library AAYL52, centred on 3.91 (5% of these signals below 2.90); values are not corrected for it. Also given: how often the same scFv was detected with the empty control strains, with their mean in brackets.

CDR-L1,CDR-L2,CDR-L3,log10 Kd (nM) by replicate,control signals
EGDSLRYYGAN,GKNNRPK,SSHDSSGFQVF,2.71 2.25 3.25,0 of 9
EGDSLRYYYAN,GKNNRPS,HSRDSSGFQVF,1.66 2.42 2.07,3 of 9 (3.63)
EGCSLRYHYAN,GKNNRPS,SSRDSSGFQVT,2.39 2.52 2.05,0 of 9
EGDSQRYYYAN,GKNNRPS,SSRDSSGFQVS,ND 3.56 ND,2 of 9 (4.48)
DGDSLRYYYAN,GKNNLPD,SSRDSSGFQVF,5.05 3.02 2.81,1 of 9 (3.92)
EGDSLRYLYAN,GKNSRPS,FSRDSSGFQVF,3.33 3.83 3.67,1 of 9 (4.89)
EGDSLRYYYAN,GKNNFPI,CSRDSSGFQVF,ND 5.32 2.76,1 of 9 (4.97)
EGDSLRYYYAN,GKNNRPA,SSRDSSNFNVF,2.70 2.53 1.94,5 of 9 (4.45)
EGDSLRYYWAN,GKCNRPS,SSRDSSGFQCF,ND 3.90 ND,1 of 9 (4.95)
EGDELRYYYAN,GKNARPS,SSRDSSGHQVF,ND ND ND,3 of 9 (3.78)
EGDSLRAEYAN,GKNNRPS,SSRVSSGFQVF,3.65 3.50 ND,1 of 9 (2.75)
EGDSLRYYYAN,GKNTRPH,SSRPSSGFQVF,ND 4.67 ND,1 of 9 (3.46)
EEDSLRYYYAN,GKNNRPS,LSRDSSGFQVR,4.51 ND ND,2 of 9 (3.60)
EGDKLRYYYAN,GKNMRPS,SSRDSSGFSVF,ND 4.15 ND,1 of 9 (3.06)
VGDSLRPYYGN,GKNNRPS,SSRDSSGFQVF,2.97 3.78 4.10,1 of 9 (3.51)
EGDSLRYYYAN,GKNNRPS,SSTDSSGFLVF,3.87 5.52 ND,2 of 9 (4.69)
EGDSLRYYYAN,GKNNRPM,PSRDSSGIQVF,3.76 2.32 2.71,6 of 9 (4.18)
EGDSLRYFYAN,MKNKRPS,SSRDSSGFQVF,4.28 ND ND,1 of 9 (4.16)
EGDSLRYYYAN,GKNNRSS,SSRDSSGFLVM,3.22 2.92 1.95,1 of 9 (4.46)
NGDSLRYYYAN,GKNNRPS,SSRDSSNKQVF,1.70 1.44 1.58,3 of 9 (3.41)
QGLSLRYYYMN,GKNNRPS,SSRDSSGFQVF,ND ND ND,0 of 9
EGDSLSYYYAN,GKNNRWS,SIRDSSGFQVF,2.80 2.96 2.38,0 of 9
EGDSPRYYYAN,GPNNRPS,SSRDSKGFQVF,4.18 3.24 3.60,1 of 9 (4.13)
EGDSLRYYYAN,GKFNIPS,SSRDSSRFQVF,4.27 ND ND,3 of 9 (4.17)
EGDSLRYYYHN,QKNNRPS,SSRDNSGFQVF,4.35 5.68 ND,3 of 9 (4.57)
EHDSLRYYYAN,GKNNAPS,SSRDSSGFQFF,ND 5.88 ND,2 of 9 (4.14)
EGDSLRYYYAN,GKNNRPS,KSRMSSGFQYF,1.98 1.95 1.56,2 of 9 (3.96)
EGDSLRYYYAN,EKNNRPS,RSRDSSGFQVR,ND 5.02 ND,3 of 9 (3.83)
EGYSLRYYYAN,GKNNRPS,SSKDSSGFQWF,ND ND ND,2 of 9 (3.67)
EGDSLWYYYAN,GKNNRPS,PSRDSFGFQVF,4.85 6.03 ND,1 of 9 (3.76)
EGDSLGYYYAN,GKNNRPS,SSRLSSGFQVR,3.05 2.43 2.08,0 of 9
EGPSLRYYYAN,GKNNRPS,SSRDSLTFQVF,ND 5.54 ND,4 of 9 (3.82)
EGDSLRYYYAN,GKNNRPS,SSRDSSGNQVF,3.37 2.51 2.52,3 of 9 (3.71)
EGDSTRYYYAS,GKNCRPS,SSRDSSGFQVF,ND ND ND,2 of 9 (3.23)
EGDSLRYYYAN,EKNNRPS,SSRDDSGLQVF,ND ND ND,1 of 9 (3.86)
EGDSLRYYYVN,GINNRPS,SSRDSSGPQVF,4.98 3.49 ND,5 of 9 (3.87)
EPDSLNYYYAN,GKNNRPS,SSRDSSYFQVF,ND 4.20 ND,0 of 9
EGDSLRYYAQN,GKNNRPS,SSRDSSGFQLF,3.69 4.31 ND,3 of 9 (4.05)
EGDSLRYYLWN,GKNNRPS,SSRDSSGFQVF,ND 3.15 2.89,4 of 9 (4.60)

Excerpt, the final 3 entries:

CDR-L1,CDR-L2,CDR-L3,log10 Kd (nM) by replicate,control signals
EPDSLNYYYAN,GKNNRPS,SSRDSSYFQVF,ND 4.20 ND,0 of 9
EGDSLRYYAQN,GKNNRPS,SSRDSSGFQLF,3.69 4.31 ND,3 of 9 (4.05)
EGDSLRYYLWN,GKNNRPS,SSRDSSGFQVF,ND 3.15 2.89,4 of 9 (4.60)